Assay results reported in US9518130B2, “Use of ERBB3 inhibitors in the treatment of triple negative and basal-like breast cancers” (Merrimack Pharmaceuticals, Inc., priority 2010, dated 2016).

Test system: MDA-MB-231 triple negative breast cancer xenograft model
Experiment: MM-121 combination with targeted and chemotherapies in vivo (Example 5)
Settings: MM121 300 ug/mouse Q3D, erlotinib 50 mg/kg PO, cetuximab 2 mg/kg Q3D, paclitaxel 10 mg/kg

cetuximab: anti-EGFR antibody, commercially available from ImClone Systems Incorporated
mean tumor volumes (Day 28): 172.4 mm^3 | mean tumor volumes (Day 32): 210.6 mm^3 | mean tumor volumes (Day 36): 245.0 mm^3 | mean tumor volumes (Day 39): 269.2 mm^3 | mean tumor volumes (Day 43): 296.3 mm^3 | mean tumor volumes (Day 46): 279.7 mm^3 | mean tumor volumes (Day 49): 283.5 mm^3 | mean tumor volumes (Day 53): 358.1 mm^3
